Reference: PubChem BioAssay AID435010 (Broad Institute, 2010)
Inconclusive results are not listed.

Amino acid sequences for entries named in this document (tags omitted). A change or cut given only in a name is not applied to a line headed by its entry.
UniProt P9WHJ3: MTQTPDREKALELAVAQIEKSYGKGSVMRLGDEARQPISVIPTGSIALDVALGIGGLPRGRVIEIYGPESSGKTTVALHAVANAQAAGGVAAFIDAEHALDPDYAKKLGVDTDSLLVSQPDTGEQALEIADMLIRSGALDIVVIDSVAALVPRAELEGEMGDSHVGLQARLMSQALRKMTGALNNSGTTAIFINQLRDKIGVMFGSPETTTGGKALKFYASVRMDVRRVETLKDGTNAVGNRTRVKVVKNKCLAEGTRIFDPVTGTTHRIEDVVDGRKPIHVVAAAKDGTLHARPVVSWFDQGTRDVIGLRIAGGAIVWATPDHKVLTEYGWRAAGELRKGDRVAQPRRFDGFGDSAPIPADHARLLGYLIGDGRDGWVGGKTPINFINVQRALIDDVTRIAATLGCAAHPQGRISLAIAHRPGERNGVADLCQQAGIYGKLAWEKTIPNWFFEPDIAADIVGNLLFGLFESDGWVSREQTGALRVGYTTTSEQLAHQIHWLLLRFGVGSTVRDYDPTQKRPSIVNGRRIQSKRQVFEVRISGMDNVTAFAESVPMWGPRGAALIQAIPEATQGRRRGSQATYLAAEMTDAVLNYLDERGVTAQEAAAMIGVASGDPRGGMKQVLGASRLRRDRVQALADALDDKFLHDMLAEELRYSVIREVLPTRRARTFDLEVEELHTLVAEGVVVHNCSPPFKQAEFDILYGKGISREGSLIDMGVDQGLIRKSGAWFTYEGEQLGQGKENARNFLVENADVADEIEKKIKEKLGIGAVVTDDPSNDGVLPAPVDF

Biological target: Protein RecA (Mycobacterium tuberculosis (strain ATCC 25618 / H37Rv)) (UniProt P9WHJ3)
Assay: Inhibitors of Mycobacterium tuberculosis RecA intein splicing, fluorescence, dose retest (AID 435010)
Details: cell-free RecA-intein splicing

**Q.** For `Clc1ccc(COC(Cn2ccnc2)c2ccc(Cl)cc2Cl)c(Cl)c1` (configuration not stated), which EC50 is on record?
**A.** 9.63 µM

**Q.** How did the EC50 turn out when `Clc1ccc(COC(Cn2ccnc2)c2ccc(Cl)cc2Cl)cc1` (configuration not stated) was run?
**A.** 10.2 µM
